This passage reports Ki results from ChEMBL document CHEMBL1132565 (J Med Chem, 1999).

Sequences of proteins named here, by UniProt entry; tags and fusion partners are left off.
UniProt P32300, whole entry: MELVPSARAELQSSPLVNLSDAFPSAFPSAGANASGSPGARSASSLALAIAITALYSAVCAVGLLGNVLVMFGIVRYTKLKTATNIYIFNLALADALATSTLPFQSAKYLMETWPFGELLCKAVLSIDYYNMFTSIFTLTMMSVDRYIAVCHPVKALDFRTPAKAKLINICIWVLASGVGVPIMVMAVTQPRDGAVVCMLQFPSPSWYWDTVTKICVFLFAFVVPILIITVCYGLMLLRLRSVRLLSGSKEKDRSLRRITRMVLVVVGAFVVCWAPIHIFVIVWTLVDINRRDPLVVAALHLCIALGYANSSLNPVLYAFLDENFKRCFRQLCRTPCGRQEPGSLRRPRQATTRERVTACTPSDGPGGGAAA

The target in this test is Delta-type opioid receptor (Mus musculus, UniProt P32300). Nature of the test: Displacement of [3H]NLT from Opioid receptor delta 1 of adult male mouse brain.

The term Ki denotes the dissociation constant of the complex between target and ligand, obtained from inhibition or displacement. Higher therefore signals a looser hold on the target. With `CC(C)[C@H](NC(=O)[C@H](CC(=O)O)NC(=O)[C@H](Cc1ccccc1)NC(=O)[C@@H](C)NC(=O)[C@@H](N)Cc1ccc(O)cc1)C(=O)N[C@H](C(=O)NCC(N)=O)C(C)C` [DELTORPHIN C], the affinity, expressed as Ki, was 800 pM.
